In PubChem BioAssay (EPA / NIEHS):
The entries are a selection whose mix differs from that of the whole data set. Inconclusive results are not listed. Active and inactive are the calls of the source. How the source made its calls, unless noted: active means hit-call score of the fitted dose curve at least 0.9, where 1 is the maximum; inactive means score below 0.9.

What was measured:
[1] = IUF_NPC3_neuronal_differentiation_120hr: Leibniz Research Institute for Environmental Medicine (IUF) 120-hour Neuronal Differentiation Assay (NPC3) (AID 2284301)
Description: IUF_NPC2-5 is a cell-based, multiplexed assay that uses hNPC, a human primary neural progenitor cells, with measurements taken at 72 or 120 hours after chemical dosing in a 96-well plate. Human neural progenitor cells (hNPC) are generated from human fetal brain cortex at gestational week (GW) 16-19. In the neural progenitor cell migration and differentiation assay (NPC2-5), hNPCs grown as spheres are plated on an extracellular matrix and migrate and differentiate out of the sphere core. The processes radial glia migration, neuronal and oligodendrocyte migration as well as neuronal differentiation, neuronal morphology and oligodendrocyte differentiation are studied using automated phase contrast imaging and automated fluorescence imaging in combination with high content image analysis. In parallel, the cell viability is assessed using an alamar blue viability assay and the cytotoxicity using a lactate dehydrogenase dependent membrane integrity assay.IUF_NPC3_neuronal_differentiation_120hr is one of 12 assay components measured from the IUF_NPC2-5 assay. Neuronal differentiation is determined as the number of all TUBB3 positive cells in percent of the number of Hoechst-positive nuclei in the total neurosphere migration area (see IUF_NPC2a_ glia_migration_120hr) after 120 hr of migration/differentiation. […]

[2] = IUF_NPC4_neurite_length_120hr: Leibniz Research Institute for Environmental Medicine (IUF) 120-hour Neuronal Morphology Assay for Neurite Length (NPC4) (AID 2284302)
Method in brief: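 Human fetal cortex (GW 16-19) neural progenitor spheres, 0.3 mm, were plated on poly-D-lysine/laminin in N2 differentiation medium and exposed from day 0 for 120 h, half-feeding at day 3. Mean TUBB3+ neurite length (µm) came from skeletonized images, relative to DMSO.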

[3] = IUF_NPC5_oligodendrocyte_differentiation_120hr: Leibniz Research Institute for Environmental Medicine (IUF) 120-hour Oligodendrocyte Differentiation Assay (NPC5) (AID 2284304; active means hit-call score of the fitted dose curve at least 0.9, where 1 is the maximum;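 further: share of O4-positive cells among Hoechst nuclei found by CNN image analysis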)
Method in brief: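 Oligodendrocyte differentiation was scored after 120 h as the O4-positive share of Hoechst-stained nuclei across the neurosphere migration area, using a trained convolutional neural network on high-content fluorescence images. Human fetal neural progenitor spheres were dosed from day 0, normalised to DMSO.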

[4] = IUF_NPC4_neurite_area_120hr: Leibniz Research Institute for Environmental Medicine (IUF) 120-hour Neuronal Morphology Assay for Neurite Area (NPC4) (AID 2284305; active means hit-call score of the fitted dose curve at least 0.9, where 1 is the maximum)
Method in brief: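 Human fetal cortex-derived neural progenitor spheres (0.3 mm, GW 16-19) plated on poly-D-lysine/laminin in N2 differentiation medium and exposed from day 0 for 120 h across 7 concentrations plus solvent control. Neurite area is mean pixel area per TUBB3-positive neuron via skeletonization, analysed relative to DMSO.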

[5] = IUF_NPC2-5_cytotoxicity_72hr: Cytotoxicity Assessment at 72 hours in the Leibniz Research Institute for Environmental Medicine (IUF) Neural Progenitor Cell Migration and Differentiation Assay for Cytotoxicity (NPC2-5) (AID 2284306; active means hit-call score of the fitted dose curve at least 0.9, where 1 is the maximum;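 further: LDH release into supernatant measured by resorufin fluorescence marking membrane damage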)
Method in brief: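 Human fetal (GW 16-19) neural progenitor spheres, 0.3 mm, plated on poly-D-lysine/laminin in N2 differentiation medium and exposed from day 0 to 7 concentrations plus solvent control (DMSO ≤0.1%). LDH-dependent resazurin-to-resorufin fluorescence in supernatant at 72 h.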

[6] = IUF_NPC2-5_cytotoxicity_120hr: Cytotoxicity Assessment at 120 hours in the Leibniz Research Institute for Environmental Medicine (IUF) Neural Progenitor Cell Migration and Differentiation Assay (NPC2-5) (AID 2284307; active means hit-call score of the fitted dose curve at least 0.9, where 1 is the maximum)
Method in brief: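 Sphere plating starts differentiation and exposure together at day 0. Compound solution is half-replaced on day 3. At 120 h, medium supernatant is taken for an LDH membrane-integrity read based on resazurin reduction to resorufin fluorescence.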

[7] = IUF_NPC2-5_cell_number_120hr: Cell Number Assessment at 120 hours in the Leibniz Research Institute for Environmental Medicine (IUF) Neural Progenitor Cell Migration and Differentiation Assay (NPC2-5) (AID 2284308);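 further: count of Hoechst-stained nuclei in migration zone around plated human neural progenitor spheres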
Method in brief: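 hNPC spheres, one per well, PDL/laminin, N2 medium, 37C, 5% CO2. Dosing day 0 → half-medium change with fresh compound day 3 → fix 120 h. Readout: Hoechst+ nuclei count, migration area; 7 concentrations plus solvent control.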

[8] = IUF_NPC2-5_viability_120hr: Viability Assessment at 120 hours in the Leibniz Research Institute for Environmental Medicine (IUF) Neural Progenitor Cell Migration and Differentiation Assay (NPC2-5) (AID 2284312)
Method in brief: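 Human fetal (GW 16-19) neural progenitor spheres of 0.3 mm were plated on poly-D-lysine/laminin in N2 differentiation medium and exposed from day 0 for 120 h, with half-medium refresh at day 3. Viability was read as alamar blue resazurin-to-resorufin fluorescence against DMSO.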

[9] = CCTE_Mundy_HCI_iCellGluta_NOG_NeuriteLength: CCTE's Neurite Outgrowth Assay in iCellGluta cells for Neurite Length, Mundy Lab (AID 2284318; active means hit-call score of the fitted dose curve at least 0.9, where 1 is the maximum)
Method in brief: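 Automated high-content imaging of betaIII-tubulin (Alexa Fluor-488) and Hoechst-stained cells gave neurite length, normalized to the DMSO baseline.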

[10] = CCTE_Deisenroth_5AR_NBTE_donor: CCTE's 5alpha-reductase NanoBRET Target Engagement Assay […], Deisenroth Lab (AID 2284319); conditions: actives raise or lower the signal
Method in brief: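 SRD5A2-NanoLuc, HEK293T, 20 h expression. Chemical 10 nM - 29.9 uM, 8 conc, duplicate; 3 h preincubation + 2 h testosterone tracer. Nano-Glo substrate plus extracellular NanoLuc inhibitor; donor lum 460 nm. DMSO baseline, bidirectional fit.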

CC(C)OP(=O)(OC(C)C)SCCNS(=O)(=O)c1ccccc1
outcome [1]: inactive
outcome [2]: inactive
outcome [3]: inactive
outcome [4]: inactive
outcome [5]: inactive
outcome [6]: inactive
outcome [7]: inactive
outcome [8]: inactive
outcome [9]: inactive

Cc1cc([N+](=O)[O-])cc([N+](=O)[O-])c1O
outcome [10]: inactive

CC(C)OP(=S)(OC(C)C)SCCNS(=O)(=O)c1ccccc1
outcome [1]: inactive
outcome [2]: inactive
AC50 [3]: active: 1.64 µM
outcome [4]: inactive
outcome [6]: inactive
outcome [7]: inactive
outcome [8]: inactive
AC50 [9]: active: 22.3 µM
outcome [10]: inactive
